Laboratory results published in patent US10106526B2, “Inhibitors of cyclin-dependent kinase 7 (CDK7)” (SYROS PHARMACEUTICALS, INC., priority 2014, dated 2018).

The chains behind the UniProt entries cited, without tags or fusion partners.
UniProt P50613, whole entry: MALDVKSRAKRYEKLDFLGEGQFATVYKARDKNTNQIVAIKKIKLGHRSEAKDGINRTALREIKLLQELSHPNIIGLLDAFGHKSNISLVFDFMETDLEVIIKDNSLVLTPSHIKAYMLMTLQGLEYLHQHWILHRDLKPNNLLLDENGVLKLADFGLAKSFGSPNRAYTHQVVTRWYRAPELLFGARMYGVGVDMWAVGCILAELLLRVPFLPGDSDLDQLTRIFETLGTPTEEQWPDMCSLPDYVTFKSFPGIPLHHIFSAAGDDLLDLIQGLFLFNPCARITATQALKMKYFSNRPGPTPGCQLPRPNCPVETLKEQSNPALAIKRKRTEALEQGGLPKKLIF
UniProt P51948, whole entry partner: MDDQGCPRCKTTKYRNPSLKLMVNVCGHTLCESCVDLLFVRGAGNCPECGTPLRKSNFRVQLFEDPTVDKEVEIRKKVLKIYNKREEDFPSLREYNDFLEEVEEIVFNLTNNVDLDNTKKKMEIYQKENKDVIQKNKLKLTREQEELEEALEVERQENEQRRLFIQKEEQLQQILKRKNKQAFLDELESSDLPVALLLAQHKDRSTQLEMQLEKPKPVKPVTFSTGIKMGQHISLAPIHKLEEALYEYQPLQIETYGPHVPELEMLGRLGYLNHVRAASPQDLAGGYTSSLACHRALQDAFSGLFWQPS
UniProt P51946, whole entry partner: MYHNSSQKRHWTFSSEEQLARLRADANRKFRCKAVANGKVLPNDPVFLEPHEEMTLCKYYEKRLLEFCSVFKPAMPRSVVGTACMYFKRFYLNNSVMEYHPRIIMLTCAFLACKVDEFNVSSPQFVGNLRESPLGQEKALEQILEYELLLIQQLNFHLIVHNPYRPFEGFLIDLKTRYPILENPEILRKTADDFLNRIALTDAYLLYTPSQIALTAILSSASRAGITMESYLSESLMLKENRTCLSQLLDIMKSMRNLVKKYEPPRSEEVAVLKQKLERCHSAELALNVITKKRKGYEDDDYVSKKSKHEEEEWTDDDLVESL

Legend:
CDK7 = CDK7 (Homo sapiens, UniProt P50613); test: CDK7 kinase activity, Adapta kinase assay (Life Technologies); details: read-out: CDK7 Inhibition (IC50); Adapta kinase assay at Life Technologies; 10 μM down to 0.514 nM, 3-fold serial dilutions
[1] = biological target: CDK7/Cyclin H/MAT1 trimeric complex (Homo sapiens, UniProt P50613); test: CDK7 kinase assay, Caliper/LabChip EZ Reader (Biortus Biosciences); details: read-out: CDK7 Inhibition (IC50), CDK7/Cyclin H/MAT1 10 nM, ATP 2 mM, FAM-CDK7tide 2 μM, 30 min incubation
Jurkat cells = test: Inhibition of proliferation of Jurkat cells (CellTiter-Glo, 72 hour); details: read-out: Jurkat IC50, 10 μM to 316 pM
A673 cells = test: Inhibition of proliferation of A673 cells (CyQUANT, 72 hour); details: read-out: A673 IC50, 72 hour proliferation
Summary of the method: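 Human Ewing's sarcoma A673 cells in DMEM + 10% FBS + 1 mM sodium pyruvate, 37 °C, 5% CO2, exposed to compounds from 4 μM to 126.4 pM (0.5 log dilutions) for 72 h. Proliferation read by CyQUANT; IC50 reported as binned categories.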

Row | IC50 (CDK7) [nM] | IC50 [1] [nM] | IC50 (Jurkat cells) [nM] | SMILES | IC50 (A673 cells) [nM]
1 | < 100 | < 100 | 500 to 5000 | CN(C)C/C=C/C(=O)N1CCC(C(=O)N[C@H]2CCC[C@@H](Nc3ncc(Cl)c(-c4cnn5ccccc45)n3)C2)CC1 | < 500
2 | < 100 | < 100 | 500 to 5000 | O=C(N[C@H]1CCC[C@@H](Nc2ncc(Cl)c(-c3cnn4ccccc34)n2)C1)C1CCN(C(=O)/C=C/CN2CCOCC2)CC1 | 
3 | < 100 | < 100 | 500 to 5000 | C=CC(=O)N1CCC(CN(C(C)=O)[C@H]2CCC[C@@H](Nc3ncc(Cl)c(-c4c[nH]c5ccccc45)n3)C2)CC1 | 
4 | < 100 | < 100 | < 500 | C=CC(=O)N1CCN([C@H]2CCC[C@@H](Nc3ncc(Cl)c(Nc4ccccc4S(=O)(=O)C(C)C)n3)C2)CC1 | < 500
5 | < 100 | < 100 | < 500 | CN(C)C/C=C/C(=O)N1CC(C)(C(=O)N[C@H]2CCC[C@@H](Nc3ncc(Cl)c(-c4c[nH]c5ccccc45)n3)C2)C1 | < 500
6 | < 100 | < 100 | < 500 | C=CC(=O)N1CCC(C(=O)N2CCC(Nc3ncc(Cl)c(-c4c[nH]c5ccccc45)n3)CC2)CC1 | 
7 | < 100 | < 100 | < 500 | C=CC(=O)NCc1nc(C(=O)N[C@H]2CCC[C@@H](Nc3ncc(Cl)c(-c4c[nH]c5ccccc45)n3)C2)cs1 | < 500
8 | < 100 | < 100 | 500 to 5000 | C=CC(=O)N1CCC(C(=O)N[C@H]2CCC[C@@H](Nc3ncc(Cl)c(-c4cnn5ccccc45)n3)C2)CC1 | < 500
9 | < 100 | < 100 | 500 to 5000 | C=CC(=O)N1CCN(CC2(F)CCC(Nc3ncc(Cl)c(-c4c[nH]c5ccccc45)n3)CC2)CC1 (stereo not drawn) | 
10 | < 100 | < 100 | < 500 | C=CC(=O)Nc1ccc(C(=O)N[C@H]2CCC[C@@H](Nc3ncc(Cl)c(-c4c[nH]c5ccccc45)n3)C2)nc1 | < 500
11 | < 100 | < 100 | < 500 | O=C(/C=C/CN1CCOCC1)N1CCN([C@H]2CCC[C@@H](Nc3ncc(Cl)c(-c4c[nH]c5ccccc45)n3)C2)CC1 | < 500
12 | < 100 | < 100 | < 500 | C=CC(=O)N1CC(C)(C(=O)N[C@H]2CCC[C@@H](Nc3ncc(Cl)c(-c4c[nH]c5ccccc45)n3)C2)C1 | < 500
13 | < 100 | < 100 | 500 to 5000 | O=C(/C=C/CN1CCOCC1)N1CCC(C(=O)N2CCC(Nc3ncc(Cl)c(-c4c[nH]c5ccccc45)n3)CC2)CC1 | 
14 | 100 to 1000 | < 100 | 500 to 5000 | O=C(/C=C/CN1CCOCC1)N1CCC(C(=O)N2CC[C@@H](Nc3ncc(Cl)c(-c4c[nH]c5ccccc45)n3)C2)CC1 | 
15 | < 100 | < 100 | < 500 | CN(C)C/C=C/C(=O)NC1CCN(C2CCC[C@@H](Nc3ncc(Cl)c(-c4c[nH]c5ccccc45)n3)C2)CC1 (stereo partly drawn) | < 500
16 | < 100 | < 100 | < 500 | CN(C)C/C=C/C(=O)NCc1nc(C(=O)N[C@H]2CCC[C@@H](Nc3ncc(Cl)c(-c4c[nH]c5ccccc45)n3)C2)cs1 | < 500
17 | < 100 | < 100 | 500 to 5000 | C=CC(=O)NC1CCN(C2CCC[C@@H](Nc3ncc(Cl)c(-c4c[nH]c5ccccc45)n3)C2)CC1 (stereo partly drawn) | < 500

Row | SMILES | IC50 (CDK7) [nM] | IC50 [1] [nM] | IC50 (Jurkat cells) [nM] | IC50 (A673 cells) [nM]
18 | C=CC(=O)N1CCC(N(C)[C@H]2CCC[C@@H](Nc3ncc(Cl)c(-c4c[nH]c5ccccc45)n3)C2)CC1 | < 100 | < 100 | < 500 | < 500
